Measured values taken from US20260226068A1, “IMIDAZOTRIAZINE IL-17A MODULATORS AND USES THEREOF” (DICE ALPHA, INC., priority 2023, published 2026).

Amino acid sequences for entries named in this document (tags omitted). Residues count along the entry.
UniProt Q16552, 24-155 limits assumed: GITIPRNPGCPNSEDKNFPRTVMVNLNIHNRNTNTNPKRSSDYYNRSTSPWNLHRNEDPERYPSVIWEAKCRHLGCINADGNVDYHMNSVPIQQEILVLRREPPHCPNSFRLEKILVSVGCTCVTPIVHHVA
UniProt Q96PD4, 31-163 limits assumed: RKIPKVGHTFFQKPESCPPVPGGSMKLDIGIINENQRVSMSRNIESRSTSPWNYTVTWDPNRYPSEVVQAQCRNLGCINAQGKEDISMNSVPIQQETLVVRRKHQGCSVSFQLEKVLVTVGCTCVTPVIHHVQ

How the values were obtained:
IL-17A/A = IL-17A/A (Homo sapiens, UniProt Q16552); assay: IL-17A/A HEK-Blue cell assay (SEAP reporter); conditions: read-out: HEK-Blue IL17AA (IC50 for IL-17A/A inhibition); HEK-Blue IL-17A reporter cells, IL17A/A 5 ng/mL, 20 hours, SEAP read at A630
Method: (§1) The HEK-Blue IL-17A reporter cell line (Fisher #NC 1408637) was used for cell-based IL-17A/A inhibition assays. Cells were grown and prepared for assays according to the manufacturer's instructions. This cell line consists of HEK 293 cells that were designed to expressed IL-17RA, IL-17RC, and the Act1 adapter molecule, the combination of which, when stimulated by IL-17A/A or IL17A/F activates a […] promoter and drives expression of the recombinant Secreted Alkaline Phosphatase (SEAP) gene. Media from the cells is then added to a development reagent (Quanti-Blue Substrate, Fisher #NC971 1613), and read at A630.
(§2) Compounds were dispensed in DMSO to an empty clear 384-well tissue culture plate in a titration ranging from 10 μM to 27 pM, with DMSO added to every well to a final concentration of […]. Cells were then added to the plate (45 μL/well at a concentration of 280,000 cells/mL). IL17A/A (Genscript #Z03228) or IL17A/F (R&D Systems) was added to the plate to a final concentration of 5 ng/mL and a final well volume of 50 μL. The cells, compound, and IL-17A/A or IL17A/F were then incubated for 20 hours before media was removed for SEAP analysis. The resulting inhibition curve was then analyzed using Dotmatics' integrated 4-parameter fit screening protocol to generate IC50 values.
(§3) Table 2 includes IC50 values for IL-17A/A and IL-17A/F inhibition of selected compounds; with compounds having a IC50 of A<100 nM; B 100-1000 nM; and C>1000 nM.

IL-17A/F = IL-17A/F (Homo sapiens, UniProt Q16552+Q96PD4); assay: IL-17A/F HEK-Blue cell assay (SEAP reporter); conditions: read-out: HEK-Blue IL17AF (IC50 for IL-17A/F inhibition); HEK-Blue IL-17A reporter cells, IL17A/F 5 ng/mL, 20 hours, SEAP read at A630
Method: as §1, §2, §3

Structure (SMILES)	IC50 (IL-17A/A) [nM]	IC50 (IL-17A/F) [nM]
O=C(N[C@H](c1cn2nc(C[C@H]3C[C@@H](C(F)(F)F)CNC3=O)cnc2n1)[C@@H]1CCCC(F)(F)C1)c1nonc1C1CC1	100 to 1000	> 1000
CCn1nccc1C(=O)N[C@H](c1cn2nc(C[C@H]3C[C@@H](C(F)(F)F)CNC3=O)c(CN3CCOCC3C)nc2n1)C1CCC(F)(F)CC1 (single isomer, unassigned) [Compound 232]	< 100	100 to 1000
O=C(N[C@H](c1cn2nc(C[C@H]3C[C@@H](C(F)(F)F)CNC3=O)cnc2n1)[C@H]1CCCC(F)(F)C1)c1nonc1C1CC1	< 100	> 1000
